Consider 27 molecules from patent publication US11691963B2, “6-heteroaryloxy benzimidazoles and azabenzimidazoles as JAK2 inhibitors” (Ajax Therapeutics, Inc., priority 2020, dated 2023).

Amino acid sequences for entries named in this document (tags omitted). Residues count along the entry.
UniProt O60674, 849-1124 Y1007F/Y1008F: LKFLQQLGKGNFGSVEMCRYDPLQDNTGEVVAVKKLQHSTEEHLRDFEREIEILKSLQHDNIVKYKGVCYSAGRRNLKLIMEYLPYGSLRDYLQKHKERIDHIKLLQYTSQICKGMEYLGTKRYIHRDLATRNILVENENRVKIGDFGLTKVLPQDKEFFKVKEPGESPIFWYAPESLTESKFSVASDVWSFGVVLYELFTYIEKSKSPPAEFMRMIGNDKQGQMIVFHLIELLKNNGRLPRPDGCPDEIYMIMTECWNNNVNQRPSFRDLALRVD

The term Kd denotes the concentration at which binding is half-saturated.

Each structure is given as a SMILES string. Read-outs that look alike come from different tables or passages of the source.

The target in this assay is JAK2 (JH1domain-catalytic, Y1007F,Y1008F) kinase (Homo sapiens (Human), UniProt O60674, Y1007F/Y1008F). To be noted: read-out: JAK2 Kd.
The mark [1] stands for this setting: JAK2 JH1 domain-catalytic, Y1007F,Y1008F, qPCR readout.

For the molecule `CC(=O)Nc1cc(Oc2cnc3nc(Nc4cc(C(C)(C)C)n([C@@H]5CCOC5)n4)n(C)c3c2C)ccn1` [Example I-108, (R)—N-(4-((2-((5-(tert-butyl)-1-(tetrahydrofuran-3-yl)-1H-pyrazol-3-yl)amino)-1,7-dimethyl-1H-imidazo[4,5-b]pyridin-6-yl)oxy)pyridin-2-yl)acetamide], the Kd under setting [1] is less than 10 nM.

With `CC(=O)Nc1cc(Oc2ccc3nc(Nc4cc(C(C)(C)C)n(CC5COC5)n4)n(C)c3c2C#N)ccn1` [Example I-32, N-(4-((2-((5-(tert-butyl)-1-(oxetan-3-ylmethyl)-1H-pyrazol-3-yl)amino)-7-cyano-1-methyl-1H-benzo[d]imidazol-6-yl)oxy)pyridin-2-yl)acetamide], the dissociation constant (Kd) under setting [1] was less than 10 nM.

As to `CC(=O)Nc1cc(Oc2ccc3nc(Nc4cc(C(F)(F)F)n(C[C@H]5CC[C@@H](O)CC5)n4)n(C)c3c2)ccn1` [Example I-35, N-(4-((2-((1-(((1s,4s)-4-hydroxycyclohexyl)methyl)-5-(trifluoromethyl)-1H-pyrazol-3-yl)amino)-1-methyl-1H-benzo[d]imidazol-6-yl)oxy)pyridin-2-yl)acetamide], the dissociation constant Kd was in the range of 50 to 1000 nM.

As to `CC(=O)Nc1cc(Oc2cnc3nc(Nc4cc(C5CC5)cn(C)c4=O)n(C)c3c2C)ccn1` [Example I-98, N-(4-((2-((5-cyclopropyl-1-methyl-2-oxo-1,2-dihydropyridin-3-yl)amino)-1,7-dimethyl-1H-imidazo[4,5-b]pyridin-6-yl)oxy)pyridin-2-yl)acetamide], the Kd under setting [1] is less than 10 nM.

With `CC(=O)Nc1cc(Oc2ccc3nc(Nc4cc(-n5cccn5)cn(C(C)C)c4=O)n(C)c3n2)ccn1` [Example I-81, N-(4-((2-((1-isopropyl-2-oxo-5-(1H-pyrazol-1-yl)-1,2-dihydropyridin-3-yl)amino)-3-methyl-3H-imidazo[4,5-b]pyridin-5-yl)oxy)pyridin-2-yl)acetamide], the equilibrium dissociation constant (Kd) under setting [1] was less than 10 nM.

Take `CC(=O)Nc1cc(Oc2cnc3nc(Nc4cc(C(C)(C)C)n(C[C@@H]5CCOC5)n4)n(C)c3c2C)ccn1` (single isomer, unassigned) [Example I-117-b]: the Kd under setting [1] is less than 10 nM.

As to `CC(=O)Nc1cc(Oc2cnc3nc(Nc4cc(C(C)(C)C#N)n([C@H]5CCOC5)n4)n(C)c3c2Cl)ccn1` [Example I-149, (S)—N-(4-((7-chloro-2-((5-(2-cyanopropan-2-yl)-1-(tetrahydrofuran-3-yl)-1H-pyrazol-3-yl)amino)-1-methyl-1H-imidazo[4,5-b]pyridin-6-yl)oxy)pyridin-2-yl)acetamide], the Kd under setting [1] was less than 10 nM.

`CCc1c(Oc2ccnc(NC(C)=O)c2)cnc2nc(Nc3cc(C(C)(C)C#N)n([C@H]4CCOC4)n3)n(C)c12` [Example I-154, (S)—N-(4-((2-((5-(2-cyanopropan-2-yl)-1-(tetrahydrofuran-3-yl)-1H-pyrazol-3-yl)amino)-7-ethyl-1-methyl-1H-imidazo[4,5-b]pyridin-6-yl)oxy)pyridin-2-yl)acetamide]: the Kd under setting [1] is less than 10 nM.

For the molecule `CC(=O)Nc1cc(Oc2cnc3nc(Nc4cc(C(C)(C)C)n(C[C@H]5COCCO5)n4)n(C)c3c2C)ccn1` (single isomer, unassigned) [Example I-129-a], the Kd under setting [1] lay in the range of 10 to 50 nM.

`CC(=O)Nc1cc(Oc2ccc3nc(Nc4cc(C(C)(C)C)n([C@@H]5CCOC5)n4)n(C)c3c2)ccn1` [Example I-24, (R)—N-(4-((2-((5-(tert-butyl)-1-(tetrahydrofuran-3-yl)-1H-pyrazol-3-yl)amino)-1-methyl-1H-benzo[d]imidazol-6-yl)oxy)pyridin-2-yl)acetamide]: the equilibrium dissociation constant (Kd) under setting [1] was less than 10 nM.

In the case of `CC(=O)Nc1cc(Oc2ccc3nc(Nc4cc(C(F)(F)F)n(C[C@H]5CCCOC5)n4)n(C)c3c2)ccn1` (mixture of isomers) [Example I-36-a, (S)—N-(4-((1-methyl-2-((1-((tetrahydro-2H-pyran-3-yl)methyl)-5-(trifluoromethyl)-1H-pyrazol-3-yl)amino)-1H-benzo[d]imidazol-6-yl)oxy)pyridin-2-yl)acetamide and (R)—N-(4-((1-methyl-2-((1-((tetrahydro-2H-pyran-3-yl)methyl)-5-(trifluoromethyl)-1H-pyrazol-3-yl)amino)-1H-benzo[d]imidazol-6-yl)oxy)pyridin-2-yl)acetamide], the dissociation constant Kd under setting [1] lay in the range of 50 to 1000 nM.

In the case of `Cn1c(Nc2cc(C(C)(C)C)n(CCC#N)n2)nc2ncc(Oc3ccnc(NC(=O)C4CC4)c3)cc21` [Example I-137, N-(4-((2-((5-(tert-butyl)-1-(2-cyanoethyl)-1H-pyrazol-3-yl)amino)-1-methyl-1H-imidazo[4,5-b]pyridin-6-yl)oxy)pyridin-2-yl)cyclopropanecarboxamide], the Kd under setting [1] is less than 10 nM.

Take `CC(=O)Nc1cc(Oc2cnc3nc(Nc4cc(C(C)(C)C)n(C[C@H]5CCOC5)n4)n(C)c3c2)ccn1` (single isomer, unassigned) [Example I-112-b]: the dissociation constant (Kd) under setting [1] was less than 10 nM.

As for `COc1c(Oc2ccnc(NC(=O)C3CC3)c2)cnc2nc(Nc3cc(C(C)(C)C)n(C4CC5(COC5)C4)n3)n(C)c12` [Example I-196, N-(4-((2-((5-(tert-butyl)-1-(2-oxaspiro[3.3]heptan-6-yl)-1H-pyrazol-3-yl)amino)-7-methoxy-1-methyl-1H-imidazo[4,5-b]pyridin-6-yl)oxy)pyridin-2-yl)cyclopropanecarboxamide], the Kd under setting [1] was less than 10 nM.

Turning to `COc1c(Oc2ccnc(NC(=O)C3CC3)c2)cnc2nc(Nc3cc(C(C)(C)C)n([C@@H]4CCOC4)n3)n(C)c12` [Example I-170, (R)—N-(4-((2-((5-(tert-butyl)-1-(tetrahydrofuran-3-yl)-1H-pyrazol-3-yl)amino)-7-methoxy-1-methyl-1H-imidazo[4,5-b]pyridin-6-yl)oxy)pyridin-2-yl)cyclopropanecarboxamide], under setting [1], the Kd is less than 10 nM.

Consider `Cn1c(Nc2nn([C@@H]3CCOC3)c(C(C)(C)C)c2F)nc2ncc(Oc3ccnc(NC(=O)C4CC4)c3)cc21` [Example I-151, (R)—N-(4-((2-((5-(tert-butyl)-4-fluoro-1-(tetrahydrofuran-3-yl)-1H-pyrazol-3-yl)amino)-1-methyl-1H-imidazo[4,5-b]pyridin-6-yl)oxy)pyridin-2-yl)cyclopropane-carboxamide], for which the dissociation constant (Kd) under setting [1] was less than 10 nM.

Turning to `COCCn1cc(C(F)(F)F)cc(Nc2nc3ccc(Oc4ccnc(NC(C)=O)c4)cc3n2C)c1=O` [Example I-52], the Kd under setting [1] was less than 10 nM.

Consider `CC(=O)Nc1cc(Oc2ccc3nc(Nc4cc(C(F)(F)F)n(C5CC6(COC6)C5)n4)n(C)c3c2)ccn1` [Example I-37, N-(4-((2-((1-(2-oxaspiro[3.3]heptan-6-yl)-5-(trifluoromethyl)-1H-pyrazol-3-yl)amino)-1-methyl-1H-benzo[d]imidazol-6-yl)oxy)pyridin-2-yl)acetamide], for which the dissociation constant Kd under setting [1] was less than 10 nM.

For `CC(=O)Nc1cc(Oc2ccc3nc(Nc4cc(C(F)(F)F)cn(C)c4=O)n(C)c3c2)ccn1` [Example I-54, N-(4-((1-methyl-2-((1-methyl-2-oxo-5-(trifluoromethyl)-1,2-dihydropyridin-3-yl)amino)-1H-benzo[d]imidazol-6-yl)oxy)pyridin-2-yl)acetamide], the Kd under setting [1] is less than 10 nM.

As for `COc1c(Oc2ccnc(NC(C)=O)c2)cnc2nc(Nc3cc(C(F)(F)F)cn(CCCN4CCOCC4)c3=O)n(C)c12` [Example I-206, N-(4-((7-methoxy-1-methyl-2-((1-(3-morpholinopropyl)-2-oxo-5-(trifluoromethyl)-1,2-dihydropyridin-3-yl)amino)-1H-imidazo[4,5-b]pyridin-6-yl)oxy)pyridin-2-yl)acetamide], under setting [1], the Kd is less than 10 nM.

On to `CC(=O)Nc1cc(Oc2ccc3nc(N[C@@H]4CCc5nc(C)c(C(F)(F)F)n5C4)n(C)c3c2)ccn1` (single isomer, unassigned) [Example I-45-a], for which the dissociation constant Kd under setting [1] is greater than 5000 nM.

As to `CC(=O)Nc1cc(Oc2cnc3nc(Nc4cc(C(C)(C)C)n([C@H]5CCC[C@H]5O)n4)n(C)c3c2)ccn1` (single isomer, unassigned) [Example I-162-a], the Kd under setting [1] was less than 10 nM.

Turning to `CC(=O)Nc1cc(Oc2ccc3nc(Nc4cc(C5CC5)cn(C(C)C)c4=O)n(C)c3n2)ccn1` [Example I-65, N-(4-((2-((5-cyclopropyl-1-isopropyl-2-oxo-1,2-dihydropyridin-3-yl)amino)-3-methyl-3H-imidazo[4,5-b]pyridin-5-yl)oxy)pyridin-2-yl)acetamide], the equilibrium dissociation constant (Kd) under setting [1] was less than 10 nM.

For `CC(=O)Nc1cc(Oc2cnc3nc(Nc4cc(C(C)(C)C)n([C@@H]5CCOC5(C)C)n4)n(C)c3c2)ccn1` (single isomer, unassigned) [Example I-175-a], under setting [1], the Kd is less than 10 nM.

`CC(=O)Nc1cc(Oc2ccc3nc(Nc4cc(C5CC5)cn([C@H]5C[C@@H](O)C5)c4=O)n(C)c3c2)ccn1` [Example I-73, N-(4-((2-((5-cyclopropyl-1-((1s,3s)-3-hydroxycyclobutyl)-2-oxo-1,2-dihydropyridin-3-yl)amino)-1-methyl-1H-benzo[d]imidazol-6-yl)oxy)pyridin-2-yl)acetamide]: the Kd under setting [1] is less than 10 nM.

On to `CC(=O)Nc1cc(Oc2ccc3nc(Nc4cc([C@@H]5CC(=O)N(C)C5)cc(C(F)(F)F)c4)n(C)c3c2)ccn1` (mixture of isomers) [Example I-12-b, (R)—N-(4-((1-methyl-2-((3-(1-methyl-5-oxopyrrolidin-3-yl)-5-(trifluoromethyl)phenyl)amino)-1H-benzo[d]imidazol-6-yl)oxy)pyridin-2-yl)acetamide and (S)—N-(4-((1-methyl-2-((3-(1-methyl-5-oxopyrrolidin-3-yl)-5-(trifluoromethyl)phenyl)amino)-1H-benzo[d]imidazol-6-yl)oxy)pyridin-2-yl)acetamide], for which the dissociation constant Kd under setting [1] fell in the range of 10 to 50 nM.

Take `Cn1c(Nc2cc(C(C)(C)C)n(CC#N)n2)nc2ncc(Oc3ccnc(NC(=O)C4CC4)c3)cc21` [Example I-140, N-(4-((2-((5-(tert-butyl)-1-(cyanomethyl)-1H-pyrazol-3-yl)amino)-1-methyl-1H-imidazo[4,5-b]pyridin-6-yl)oxy)pyridin-2-yl)cyclopropanecarboxamide]: the dissociation constant (Kd) under setting [1] is less than 10 nM.
